System: uninephrectomy chronic kidney disease model in Munich Wister Fromter rats
Assay: Gentamicin induced nephrotoxicity in uninephrectomy chronic kidney disease rat model, with or without RAP
Settings: for Serum Cr: daily gentamicin 100 mg/kg intraperitoneal without RAP
Description: Rats with a Chronic Kidney Disease (CKD) background were given either saline or 40 mg/kg RAP. […] Serum creatinine, an indicator of renal function, was measured in both rat populations at day 0, 3, 4, 5, and 6.

Question: Which results are given for gentamicin [reference compound]?
Answer: Serum creatinine (indicator of renal function), change over time (CKD rats, saline vehicle plus gentamicin 100 mg/kg intraperitoneal daily for five days, day 0, 3, 4, 5, 6, FIG. 1): increase in serum creatinine; Serum Cr (day 5): 3.1 ± 0.4 mg/dL; Serum Cr (day 6): 5.4 ± 0.8 mg/dL; 24-hour creatinine clearance (gentamicin without RAP, CKD pretreatment baseline 0.91=0.22 ml/min): 0.09 ± 0.07 mL/min
